Patent US10869937B2, “Polymer derivatives, and novel polymer derivative imaging probe using same” (Nippon Kayaku Kabushiki Kaisha, priority 2016, dated 2020)
Like-named read-outs stand apart in the source and are kept apart here.

Key:
[1] = tested on: human pancreatic cancer BxPC3 tumor; conditions: for fluorescence distribution in tumor: BxPC3 subcutaneous tumor, 5 mg/kg in terms of Nile Red derivative, single i.v., one hour after administration; for accumulation properties in tumor: conclusion from tumor fluorescence, Test Example 4
kidney [2] = conditions: BxPC3 tumor-bearing mice, 5 mg/kg in terms of Nile Red derivative, single i.v., one hour after administration
[3] = Average particle size measurement with single nanoparticle size analyzer IG-1000 (induced diffraction grating method); type: physicochemical; conditions: 25° C.
Description: The particle size (average particle size) of the nanoparticles according to the invention is measured by, for example, an induced diffraction grating method. An induced diffraction grating method is a method of: (1) irradiating a 1 or 2 mg/mL aqueous solution of the block copolymer of the present invention or a composition including the block copolymer with laser light, thereby forming diffraction gratings by dielectrophoresis; (2) stopping an external force that causes dielectrophoresis, measuring the annihilation rate of the diffraction gratings caused by diffusion, and (3) applying the annihilation rate to the Stokes-Einstein relational equation to obtain the particle size. For example, the particle size may be measured with a single nanoparticle size measuring apparatus, IG-1000, manufactured by Shimadzu Corp.
Measurement of the average particle sizes of the block copolymers of Synthesis Examples and Examples and compositions including those block copolymers was carried out using a single nanoparticle size analyzer, IG-1000, manufactured by Shimadzu Corp. (measurement temperature: 25° C., light intensity at t=0: 100 to 200). Regarding the sample for measuring the average particle size, a solution produced using ultrapure water to a block copolymer concentration of 1 mg/mL or 2 mg/mL and filtered through a 0.45 μm membrane filter, was used.

kidney [4] = conditions: RCC-01-JCK tumor-bearing mice, 5 mg/kg in terms of Nile Red derivative, single i.v., one hour after administration
kidney [5] = conditions: U87MG tumor-bearing mice, 5 mg/kg in terms of Nile Red derivative, single i.v., one hour after administration
kidney [6] = conditions: BxPC-3 tumor-bearing mice, 5 mg/kg in terms of Nile Red derivative, single i.v., one hour after administration
[7] = tested on: human renal cancer RCC-01-JCK tumor; conditions: RCC-01-JCK subcutaneous tumor, 5 mg/kg in terms of Nile Red derivative, single i.v., one hour after administration
human glioma U87MG tumor = conditions: U87MG subcutaneous tumor, 5 mg/kg in terms of Nile Red derivative, single i.v., one hour after administration
[8] = tested on: human pancreatic cancer BxPC-3 tumor; conditions: BxPC-3 subcutaneous tumor, 5 mg/kg in terms of Nile Red derivative, single i.v., one hour after administration

Substance	fluorescence distribution in tumor [1]	accumulation properties in tumor [1]	fluorescence distribution in kidney (kidney [2])	average particle size ([3]; 1 mg/mL in ultrapure water) [nm]	fluorescence distribution in kidney (kidney [4])	fluorescence distribution in kidney (kidney [5])	fluorescence distribution in kidney (kidney [6])	average particle size ([3]; 2 mg/mL in ultrapure water) [nm]	fluorescence distribution in tumor [7]	fluorescence distribution in tumor (human glioma U87MG tumor)	fluorescence distribution in tumor [8]
Cabazitaxel (CBZ)-Bonded, n-Butylamine-Bonded, and Nile Red Derivative-Bonded Product of Polyethylene Glycol (2 kDa)-α,β-Polyaspartic Acid (12.5 Polymerization Units) Block Copolymer [Example 2]	signals of fluorescence were observed in a wide area of tumor sections	exhibited rapid tumor accumulation properties	fluorescence was observed in the renal tubules	14							
Nile Red Derivative-Bonded Product of Polyethylene Glycol (2 kDa)-α,β-Polyaspartic Acid (12.5 Polymerization Units) Block Copolymer [Comparative Example 3]	fluorescence signals were observed in the outer periphery of tumors; however, tumor tissue penetrability was not confirmed	exhibited low accumulation properties in tumor	fluorescence was observed in the renal tubules								
Cabazitaxel (CBZ)-Bonded and Nile Red Derivative-Bonded Product of Polyethylene Glycol (12 kDa)-α,β-Polyaspartic Acid (23.8 Polymerization Units) Block Copolymer [Comparative Example 2]	fluorescence signals were observed in the outer periphery of tumors; however, tumor tissue penetrability was not confirmed	exhibited lower accumulation properties in tumor compared to Example 2	fluorescence was not recognized in areas other than in the blood vessels	29							
4-phenyl-1-Butanol-Bonded and Nile Red Derivative-Bonded Product of Polyethylene Glycol (12 kDa)-Polyglutamic Acid (22.0 Polymerization Units) Block Copolymer [Comparative Example 1, reference compound]					fluorescence was not recognized in areas other than in the blood vessels	fluorescence was not recognized in areas other than in the blood vessels	fluorescence was not recognized in areas other than in the blood vessels	36			
4-Phenyl-1-Butanol-Bonded and Nile Red Derivative-Bonded Product of Polyethylene Glycol (2 kDa)-Polyglutamic Acid (7.9 Polymerization Units) Block Copolymer [Example 1]					fluorescence was observed in the blood vessels and renal tubules	fluorescence was observed in the blood vessels and renal tubules	fluorescence was observed in the blood vessels and renal tubules	18	penetrated into the entire tumor, and fluorescence signals were observed in a wider area, compared to Comparative Example 1	penetrated into the entire tumor, and fluorescence signals were observed in a wider area, compared to Comparative Example 1	penetrated into the entire tumor, and fluorescence signals were observed in a wider area, compared to Comparative Example 1
